From patent publication US20250084079A1, “COMPOSITIONS AND METHODS FOR INHIBITION OF RAS” (TheRas, Inc., priority 2022, published 2025)

Sequences of proteins named here, by UniProt entry; tags and fusion partners are left off. Residues count along the entry.
UniProt P01116, 1-169 isoform 2 limits assumed: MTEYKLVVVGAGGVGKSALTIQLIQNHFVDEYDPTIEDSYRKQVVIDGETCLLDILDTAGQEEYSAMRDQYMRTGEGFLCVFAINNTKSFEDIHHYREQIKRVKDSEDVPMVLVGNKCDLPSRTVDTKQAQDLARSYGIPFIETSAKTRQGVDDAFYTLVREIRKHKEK
UniProt P01116, 1-169 isoform 2 G12D limits assumed: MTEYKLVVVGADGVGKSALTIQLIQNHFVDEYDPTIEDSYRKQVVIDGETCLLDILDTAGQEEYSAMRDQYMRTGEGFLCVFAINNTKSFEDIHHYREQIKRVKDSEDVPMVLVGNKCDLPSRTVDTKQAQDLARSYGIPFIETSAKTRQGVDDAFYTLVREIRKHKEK
UniProt P01116, 1-169 isoform 2 G12V limits assumed: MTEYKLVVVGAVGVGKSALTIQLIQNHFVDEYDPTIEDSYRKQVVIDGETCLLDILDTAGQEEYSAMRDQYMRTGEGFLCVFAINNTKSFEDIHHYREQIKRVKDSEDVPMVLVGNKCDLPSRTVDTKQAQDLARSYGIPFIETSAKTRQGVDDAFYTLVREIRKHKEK
UniProt P01116, 1-169 isoform 2 G12D/Q25A limits assumed: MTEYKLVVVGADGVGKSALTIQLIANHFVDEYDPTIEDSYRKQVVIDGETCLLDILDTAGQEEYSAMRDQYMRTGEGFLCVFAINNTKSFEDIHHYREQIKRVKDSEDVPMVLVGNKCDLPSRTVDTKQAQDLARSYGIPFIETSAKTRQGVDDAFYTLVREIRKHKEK

Assays:
[1] = target: Avi-KRAS WT (1-169) GppNHp/RAF1 RBD-3xFLAG (52-151) (Homo sapiens, UniProt P01116); assay: RAS-effector PPI HTRF disruption assay, Raf1-GppNHp-KRAS WT; settings: read-out: Raf1-GppNHp-KRAS WT disruption
Method: (§1) A protein:protein interaction (PPI) Homogeneous Time Resolved Fluorescence (HTRF) assay was used to determine the effectiveness of compounds of the present disclosure in disrupting KRAS protein and effector (RAF1 or PIK3 CA) binding.
(§2) The HTRF assay used the following reagents and proteins: (i) 375 nM Avi-KRAS G12D/Q25A (1-169) GppNHp/3×FLAG-PI3KCA (157-299); (ii) 100 nM Avi-KRAS G12D (1-169) GppNHp/RAF1 RBD-3×FLAG (52-151); (iii) 50 nM Avi-KRAS G12V (1-169) GppNHp/RAF1 RBD-3×FLAG (52-151); (iv) 50 nM Avi-KRAS WT (1-169) GppNHp/RAF1 RBD-3×FLAG (52-151); and (v) 35 nM Avi-PI3K RBD CA-3×FLAG; Assay Buffer: 50 mM Tris pH 7.5, 100 mM NaCl, 5 mM MgCl2, 0.1% BSA, 0.01% Tween, 1 mM TCEP, 10% DMSO; Bead Buffer: 50 mM Tris pH 7.5, 0.01% Tween 20; Assay volume: 20 μL (384 well plate-low volume format); and Compound titration: 100-0.02 μM, 3× dilution series.
(§3) The HTRF assay employed the following protocol:
(§4) Compounds were dispensed in assay plate (384-well, Grenier Bione #784075) using Echo (model 555) with dose response settings: 200 nL final volume, titration from 100 μM as a 10-point dilution series. Protein mix was prepared in assay buffer, and dispensed on plates, 10 μL per well, then incubated for 1 h at room temperature, with 700 rpm shaking. Reagents mix was prepared and dispensed on plates, 10 μL per well, then incubated for 1 h at room temperature, with 700 rpm shaking.
(§5) Plates were analyzed on an Envision plate reader using the following setting: Excitation 320 nm, Bandwidth […]; Emission 615 nm, Bandwidth […], Gain 100%, Flashes 100, Lag 60 μs. Data was reported as percentage of activity, with DMSO as 100%. Data was plotted and analyzed using Prism 8. The SPR Kd, biochemical Raf1-KRAS G12D/G12V/WT-GppNHP and PI3KCA-KRAS G12D/Q25A-GppNHp disruption assay IC50 of selected compounds described herein are shown in Table 4.

[2] = tested on: pERK in GP2d cells (KRAS G12D); assay: Cell-based pERK HTRF assay in GP2d cell; settings: read-out: pERK-Gp2D-1 hr, 60 min incubation
Method: A pERK assay (Perkin Elmer) was used to determine the effectiveness of compounds in disrupting KRAS G12D protein/effector signaling in cells.
On Day 1, cells (GP2d) were seeded into 96-well plates at 3×10^4 cells/well in 80 μL complete growth media (DMEM, 10% FBS).
On Day 2, cells were treated with compounds at 0.25% DMSO. The source plate was created with compounds diluted in media at 5-fold the final assay concentration. The compounds were run in a 9-point concentration curve starting at 1 μM, with a half-log dilution between concentrations. 20 μL was transferred onto the cell plates (final volume in wells was 100 μL). Plates were harvested after 60 min incubation by aspirating media and adding kit-supplied 1× supplemented lysis buffer to all wells (50 μL per well). Plates were then placed on a plate shaker and incubated at 850 rpm for an additional 30 min.
Antibody mixture solution is prepared by diluting aliquoted d2 and Eu Cryptate antibodies 1:20 in kit supplied detection buffer, mix the diluted antibodies solutions (1:1 v:v). 4 μL of this solution is then added to a 384-well detection plate (Perkin Elmer; 6008230).
Samples were homogenized by pipetting up and down and then transferred (16 μL of cell lysates) from the 96-well cell culture plate to two wells of the HTRF 384-well detection plate containing the antibody solution. Plates were centrifuged (524 g for 1 min) and allowed to incubate between 4 and 24 h at room temperature. Maximum signal is reached after 4 h incubation time and remains stable over a period of 24 hours. Therefore, readings can be made between 4 and 24 h of incubation. Plates were centrifuged again (524 g for Imin), then analyzed on the EnVision plate reader using the following settings: Excitation 320 nm, Bandwidth 75 nm; Emission 615 nm, Bandwidth 85 nm; Gain 100%; Flashes 100; Lag 60 μs.

[3] = target: Avi-KRAS G12V (1-169) GppNHp/RAF1 RBD-3xFLAG (52-151) (Homo sapiens, UniProt P01116, G12V); assay: RAS-effector PPI HTRF disruption assay, Raf1-GppNHp-KRAS G12V; settings: read-out: Raf1-GppNHp-KRAS G12V disruption
Method: as §1, §2, §3, §4, §5

[4] = target: Avi-KRAS G12D (1-169) GppNHp/RAF1 RBD-3xFLAG (52-151) (Homo sapiens, UniProt P01116, G12D); assay: RAS-effector PPI HTRF disruption assay, Raf1-GppNHp-KRAS G12D; settings: read-out: Raf1-GppNHp-KRAS G12D disruption
Method: as §1, §2, §3, §4, §5

[5] = target: Avi-KRAS G12D/Q25A (1-169) GppNHp/3xFLAG-PI3KCA (157-299) (Homo sapiens, UniProt P01116, G12D/Q25A); assay: RAS-effector PPI HTRF disruption assay, PI3KCA-GppNHp-KRAS G12D/Q25A; settings: read-out: PI3KCA-GppNHp-KRAS G12D/Q25A disruption
Method: as §1, §2, §3
Compounds were dispensed in assay plate (384-well, Grenier Bione #784075) using Echo (model 555) with dose response settings: 200 nL final volume, titration from 100 μM as a 10-point dilution series. […]
Plates were analyzed on an Envision plate reader using the following setting: Excitation 320 nm, Bandwidth […]; Emission 615 nm, Bandwidth […], Gain 100%, Flashes 100, Lag 60 μs. […] Data was plotted and analyzed using Prism 8. […]

Row | Structure (SMILES) | IC50 [1] [µM] | IC50 [2] [µM] | IC50 [3] [µM] | IC50 [4] [µM] | IC50 [5] [µM]
1 | N#Cc1c(N)sc2c(F)ccc(-c3c(C(F)(F)F)cc4c(O[C@H]5CNC[C@H]5F)nc(OC[C@@]56CCCN5C[C@H](F)C6)nc4c3F)c12 | 0.1 to 1 | < 0.1 | 1 to 10 | 0.1 to 1 | –
2 | COC[C@@H]1C[C@@H](Oc2nc(OC[C@@]34CCCN3C[C@H](F)C4)nc3c(F)c(-c4ccc(F)c5sc(N)c(C#N)c45)c(C(F)(F)F)cc23)CN1 (atropisomer, axis not shown) [Compound 84] | > 10 | 0.1 to 1 | > 10 | > 10 | –
3 | N#Cc1c(N)sc2c(F)ccc(-c3c(C(F)(F)F)cc4c(O[C@@H]5CCC6(CNC6)C5)nc(OC[C@@]56CCCN5C[C@H](F)C6)nc4c3F)c12 (atropisomer, axis not shown) [Compound 85] | > 10 | > 1 | > 10 | > 10 | –
4 | N#Cc1c(N)sc2c(F)ccc(-c3c(Cl)cc4c(O[C@H]5CCN[C@H]5CO)nc(OC[C@@]56CCCN5C[C@H](F)C6)nc4c3F)c12 | > 10 | > 1 | > 10 | > 10 | –
5 | N#Cc1c(N)sc2c(F)ccc(-c3ncc4c(O[C@H]5CNC[C@@H]5F)nc(OC[C@@]56CCCN5C[C@H](F)C6)nc4c3F)c12 | > 10 | > 1 | > 10 | > 10 | > 10
